Test: Nilotinib serum pharmacokinetics at steady-state
Conditions: for Nilotinib AUC0-t, mean±SD / Nilotinib Cavg, mean±SD / Nilotinib Cmax, mean±SD / Nilotinib tmax, median (range): steady-state Day 8 or 15; for Nilotinib CL/F, mean±SD: steady-state
[1] = Cohort 2 n=6: nilotinib 200 mg qd, imatinib 400 mg bid
[2] = Cohort 3 n=6: nilotinib 400 mg qd, imatinib 400 mg bid
[3] = Cohort 4 n=5: nilotinib 400 mg bid, imatinib 400 mg bid
[4] = Cohort 5 n=12: nilotinib 400 mg bid, imatinib 400 mg qd

Compound: Cc1cn(-c2cc(NC(=O)c3ccc(C)c(Nc4nccc(-c5cccnc5)n4)c3)cc(C(F)(F)F)c2)cn1 [Nilotinib]
- Nilotinib AUC0-t, mean±SD [1]: 10474 ± 3491 ng·h/mL
- Nilotinib Cavg, mean±SD [1]: 438 ± 150 ng/mL
- Nilotinib CL/F, mean±SD (Cohort 2 n=6: nilotinib 200 mg qd, imatinib 400 mg bid, estimated as dose/AUC0-t): 21.5 ± 9.3 L/h
- Nilotinib Cavg, mean±SD [2]: 863 ± 472 ng/mL
- Nilotinib Cmax, mean±SD [2]: 1236 ± 705 ng/mL
- Nilotinib tmax, median (range) [2]: 6.4 (1.9-23.8) h
- Nilotinib CL/F, mean±SD (Cohort 3 n=6: nilotinib 400 mg qd, imatinib 400 mg bid, estimated as dose/AUC0-t): 25.6 ± 13.8 L/h
- Nilotinib AUC0-t, mean±SD [3]: 18717 ± 8516 ng·h/mL
- Nilotinib Cavg, mean±SD [3]: 1617 ± 610 ng/mL
- Nilotinib Cmax, mean±SD [3]: 2160 ± 756 ng/mL
- Nilotinib tmax, median (range) [3]: 2.1 (0-12.5) h
- Nilotinib CL/F, mean±SD (Cohort 4 n=5: nilotinib 400 mg bid, imatinib 400 mg bid, estimated as dose/AUC0-t): 24.8 ± 10.0 L/h
- Nilotinib CL/F, mean±SD (Cohort 5: nilotinib 400 mg bid, imatinib 400 mg qd, n=3, estimated as dose/AUCτ): 19.1 ± 6.1 L/h
- Nilotinib AUC0-t, mean±SD [4]: 16760 ± 9450 ng·h/mL
- Nilotinib Cavg, mean±SD [4]: 1642 ± 701 ng/mL
- Nilotinib Cmax, mean±SD [4]: 2509 ± 1266 ng/mL
- Nilotinib tmax, median (range) [4]: 0 (0-5.0) h
